Test results as given in patent US20200253926A1, “THERAPEUTIC COMBINATIONS” (SUPERSALUS, INC., priority 2019, published 2020).

Type: physicochemical
Experimental: Zofenopril calcium was slurried in ACN. Two molar equivalents of HCl were added. The materials were allowed to slurry overnight. […] The indexed XRPD pattern for the material is shown in FIGS. 1a and 1b. ^1H NMR (DMSO-d6) results were obtained for zofenopril calcium chloride form A sample 7537-40-02 and shown to be consistent with zofenopril with trace amounts of nicorandil and ACN (FIG. 2). DSC for zofenopril calcium chloride is shown as FIG. 3. On DSC this material has an onset at 162° C. This is in contrast to DSC results for zofenopril calcium which has an onset of 250.3° C. TGA results for zofenopril calcium chloride are provided in FIG. 4, there is 1.4% weight loss from 38 to 109° C. and 4.2% weight loss from 110 to 203° C. Based on IC, the calcium to zofenopril ratio is 0.99 to 1, and the chloride to zofenopril ratio is 0.89 to 1, which are consistent with 1:1:1 zofenopril calcium chloride. […] On the sorption step up to 65% RH, the material gained 1.2% weight. Above this RH, the material gained an additional 36.9% weight. […] Most of the weight was lost on desorption with significant hysteresis. The material recovered after the DVS experiment was identified as Zofenopril Calcium Chloride Form A by XRPD (FIG. 6).
This oil, which is zofenopril free acid, was dissolved in ACN. NaOH in water was added to the dissolved zofenopril free acid solution. […]

aqueous solubility: approximately 0.1 mg/ml
Substance: zofenopril calcium chloride [Zofenopril calcium chloride form A]
